# Data reported in patent US7838527B2, “Methods of treating cancer and related methods” (Novartis Vaccines and Diagnostics, Inc., priority 2002, dated 2010).
# System: PC3 (prostate cancer)
# Assay: cells
# Conditions: Homo sapiens, 72 h
structure (smiles),measurement,value
CN1CCN(c2ccc3nc(-c4c(N)c5c(F)cccc5[nH]c4=O)[nH]c3c2)CC1 [Compound 1],EC50,1 to 10 µM
